The record followed here is paper PMC5974032.

Sequences of proteins named here, by UniProt entry; tags and fusion partners are left off. Residues count along the entry.
UniProt P02745, 23-245: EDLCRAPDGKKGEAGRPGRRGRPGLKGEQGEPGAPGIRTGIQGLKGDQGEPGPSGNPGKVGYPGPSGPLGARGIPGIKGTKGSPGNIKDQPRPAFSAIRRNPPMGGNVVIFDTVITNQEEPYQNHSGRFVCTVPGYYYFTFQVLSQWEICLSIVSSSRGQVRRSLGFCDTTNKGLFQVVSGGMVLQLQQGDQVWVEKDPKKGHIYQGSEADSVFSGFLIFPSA
C1q purified from human serum, UniProt P02746, 28-253: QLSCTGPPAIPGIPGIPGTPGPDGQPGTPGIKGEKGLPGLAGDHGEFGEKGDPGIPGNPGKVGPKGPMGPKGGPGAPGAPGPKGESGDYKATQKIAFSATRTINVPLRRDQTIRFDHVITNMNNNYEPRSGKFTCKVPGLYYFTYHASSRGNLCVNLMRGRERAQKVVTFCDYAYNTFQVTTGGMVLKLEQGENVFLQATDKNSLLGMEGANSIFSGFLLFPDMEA
C1q purified from human serum, UniProt P02747, 29-245: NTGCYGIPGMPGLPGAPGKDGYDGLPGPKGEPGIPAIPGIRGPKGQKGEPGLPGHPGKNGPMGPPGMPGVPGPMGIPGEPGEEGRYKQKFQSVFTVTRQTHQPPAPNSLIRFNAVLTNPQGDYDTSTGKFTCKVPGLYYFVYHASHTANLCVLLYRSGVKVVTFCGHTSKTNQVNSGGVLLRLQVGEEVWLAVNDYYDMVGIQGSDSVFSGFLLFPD

The assay has as its target O10 IgG1_CH2-3 (mouse). Kind of assay: ELISA; plates coated with BSA conjugated with B-trisaccharide, O10 muteins captured from cell culture media (3 µg/ml), then 2 µg/ml C1q purified from human serum, detected with HRP-labeled anti-human C1q; signal normalized to bound antibody; room temperature.

“C1q purified from human serum (from UniProt P02745 23-245; P02746 28-253; P02747 29-245) (complex)” yielded a C1q binding relative to native IgG3 (normalized to bound antibody) of 12%.
